Tests used:
Experiment in all cases: DSF kinase panel
Settings in all cases: 10 μM
[1] = target: MST3 (Homo sapiens, UniProt Q9Y6E0)
[2] = target: BRPF1 (Homo sapiens, UniProt P55201)
[3] = target: SLK (Homo sapiens, UniProt Q9H2G2)
[4] = target: STLK3 (Homo sapiens, UniProt Q9UEW8)
[5] = target: DCAMKL1 (Homo sapiens, UniProt O15075)
[6] = target: ULK1 (Homo sapiens, UniProt O75385)
[7] = target: PIM1 (Homo sapiens, UniProt P11309)
[8] = target: PLK4 (Homo sapiens, UniProt O00444)
[9] = target: CDKL1 (Homo sapiens, UniProt Q00532)
[10] = target: BRD4 (Homo sapiens, UniProt O60885)
[11] = target: OSR1 (Homo sapiens, UniProt O95747)
[12] = target: GAK (Homo sapiens, UniProt O14976)
[13] = target: CAMK4 (Homo sapiens, UniProt Q16566)
[14] = target: MAPKAPK2 (Homo sapiens, UniProt P49137)
[15] = target: NQO2 (Homo sapiens, UniProt P16083)
[16] = target: BMPR2 (Homo sapiens, UniProt Q13873)
[17] = target: SRC (Homo sapiens, UniProt P12931)
[18] = target: EPHA4 (Homo sapiens, UniProt P54764)
[19] = target: CK2a1 (Homo sapiens, UniProt P68400)
[20] = target: DRAK2 (Homo sapiens, UniProt O94768)
[21] = target: WNK1 (Homo sapiens, UniProt Q9H4A3)
[22] = target: MAP2K7 (Homo sapiens, UniProt O14733)
[23] = target: MARK4 (Homo sapiens, UniProt Q96L34)
[24] = target: DYRK1A (Homo sapiens, UniProt Q13627)
[25] = target: BRAF (Homo sapiens, UniProt P15056)
[26] = target: DRAK1 (Homo sapiens, UniProt Q9UEE5)
[27] = target: LOK (Homo sapiens, UniProt O94804)
[28] = target: MAPK15 (Homo sapiens, UniProt Q8TD08)
[29] = target: TIF1 (Homo sapiens, UniProt O15164)
[30] = target: EPHA5 (Homo sapiens, UniProt P54756)
[31] = target: AAK1 (Homo sapiens, UniProt Q2M2I8)
[32] = target: MARK3 (Homo sapiens, UniProt P27448)
[33] = target: VRK1 (Homo sapiens, UniProt Q99986)
[34] = target: FLT1 (Homo sapiens, UniProt P17948)
[35] = target: GPRK5 (Homo sapiens, UniProt P34947)
[36] = target: PAK4 (Homo sapiens, UniProt O96013)
[37] = target: MYT1 (Homo sapiens, UniProt Q99640)
[38] = target: CAMK1D (Homo sapiens, UniProt Q8IU85)
[39] = target: JNK3 (Homo sapiens, UniProt P53779)
[40] = target: CASK (Homo sapiens, UniProt O14936)
[41] = target: NEK7 (Homo sapiens, UniProt Q8TDX7)
[42] = target: CK1d (Homo sapiens, UniProt P48730)

Protein sequences, listed by entry. Tags and fused reporters are not part of them. Lines headed by an entry give the natural chain unless they say otherwise; changes in a name come on top. Residues count along the entry.
UniProt Q9Y6E0, 36-286 limits assumed: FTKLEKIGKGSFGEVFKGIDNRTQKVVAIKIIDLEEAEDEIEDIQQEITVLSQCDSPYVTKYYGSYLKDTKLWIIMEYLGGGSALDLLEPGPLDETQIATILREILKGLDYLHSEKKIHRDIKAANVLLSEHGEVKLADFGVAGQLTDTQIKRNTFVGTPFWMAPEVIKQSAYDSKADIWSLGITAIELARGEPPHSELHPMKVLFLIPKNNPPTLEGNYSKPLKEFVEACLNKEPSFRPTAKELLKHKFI
UniProt O15075, 372-649 limits assumed: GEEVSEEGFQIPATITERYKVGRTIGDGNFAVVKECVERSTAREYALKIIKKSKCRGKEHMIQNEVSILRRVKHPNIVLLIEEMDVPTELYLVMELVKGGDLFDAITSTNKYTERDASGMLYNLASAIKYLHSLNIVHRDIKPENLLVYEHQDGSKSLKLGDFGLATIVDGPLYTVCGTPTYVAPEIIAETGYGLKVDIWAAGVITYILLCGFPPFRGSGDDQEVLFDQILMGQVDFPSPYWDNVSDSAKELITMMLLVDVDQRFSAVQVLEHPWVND
UniProt O75385, 1-283 limits assumed: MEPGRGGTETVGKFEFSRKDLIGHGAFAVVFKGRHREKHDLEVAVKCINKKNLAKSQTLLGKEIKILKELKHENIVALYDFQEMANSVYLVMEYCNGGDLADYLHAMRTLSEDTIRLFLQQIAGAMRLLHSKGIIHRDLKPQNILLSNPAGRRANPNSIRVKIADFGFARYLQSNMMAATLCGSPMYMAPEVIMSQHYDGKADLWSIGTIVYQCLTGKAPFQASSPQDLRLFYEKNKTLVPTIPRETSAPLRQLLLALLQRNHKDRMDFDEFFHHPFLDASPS
UniProt P11309, whole entry, looked up: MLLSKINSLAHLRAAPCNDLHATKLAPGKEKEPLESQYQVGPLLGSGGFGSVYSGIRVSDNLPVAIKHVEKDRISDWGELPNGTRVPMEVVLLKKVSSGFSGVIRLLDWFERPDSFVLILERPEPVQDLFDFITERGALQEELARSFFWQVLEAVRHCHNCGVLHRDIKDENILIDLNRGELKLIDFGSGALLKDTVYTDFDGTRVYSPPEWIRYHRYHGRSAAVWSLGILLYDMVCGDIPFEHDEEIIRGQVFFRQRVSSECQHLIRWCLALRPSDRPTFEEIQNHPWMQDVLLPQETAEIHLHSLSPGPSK
UniProt O00444, 2-275 limits assumed: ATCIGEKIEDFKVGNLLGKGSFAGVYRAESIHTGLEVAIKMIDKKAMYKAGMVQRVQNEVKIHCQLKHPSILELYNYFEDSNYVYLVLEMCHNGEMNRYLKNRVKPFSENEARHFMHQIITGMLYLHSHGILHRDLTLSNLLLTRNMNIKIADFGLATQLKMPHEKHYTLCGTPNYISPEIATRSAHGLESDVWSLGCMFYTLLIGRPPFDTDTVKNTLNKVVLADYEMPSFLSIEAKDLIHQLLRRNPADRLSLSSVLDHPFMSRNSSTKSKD
UniProt Q00532, 4-287 limits assumed: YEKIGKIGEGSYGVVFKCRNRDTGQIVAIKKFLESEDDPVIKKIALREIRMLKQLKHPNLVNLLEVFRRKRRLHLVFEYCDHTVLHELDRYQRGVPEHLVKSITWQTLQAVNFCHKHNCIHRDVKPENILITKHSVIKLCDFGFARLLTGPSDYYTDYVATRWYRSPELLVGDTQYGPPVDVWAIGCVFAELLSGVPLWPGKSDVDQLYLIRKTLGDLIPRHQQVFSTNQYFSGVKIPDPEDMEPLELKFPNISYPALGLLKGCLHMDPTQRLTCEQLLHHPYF
UniProt O95747, 17-291 limits assumed: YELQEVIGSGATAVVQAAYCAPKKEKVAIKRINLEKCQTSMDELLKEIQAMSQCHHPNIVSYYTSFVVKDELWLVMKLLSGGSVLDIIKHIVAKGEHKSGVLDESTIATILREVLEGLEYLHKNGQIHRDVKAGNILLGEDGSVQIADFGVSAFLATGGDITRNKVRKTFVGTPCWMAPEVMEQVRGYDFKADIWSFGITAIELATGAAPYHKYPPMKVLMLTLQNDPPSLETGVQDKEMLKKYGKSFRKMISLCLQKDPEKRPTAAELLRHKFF
UniProt O14976, 14-351 limits assumed: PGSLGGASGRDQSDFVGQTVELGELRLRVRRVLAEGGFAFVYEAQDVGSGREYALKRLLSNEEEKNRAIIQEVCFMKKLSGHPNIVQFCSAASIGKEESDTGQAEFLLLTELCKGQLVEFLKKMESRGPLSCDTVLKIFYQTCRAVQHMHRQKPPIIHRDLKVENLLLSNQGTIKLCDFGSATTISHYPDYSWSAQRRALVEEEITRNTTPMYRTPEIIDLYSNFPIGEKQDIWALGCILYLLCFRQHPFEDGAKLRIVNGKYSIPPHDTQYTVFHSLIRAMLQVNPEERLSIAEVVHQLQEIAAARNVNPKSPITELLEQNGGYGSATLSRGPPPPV
UniProt P16083: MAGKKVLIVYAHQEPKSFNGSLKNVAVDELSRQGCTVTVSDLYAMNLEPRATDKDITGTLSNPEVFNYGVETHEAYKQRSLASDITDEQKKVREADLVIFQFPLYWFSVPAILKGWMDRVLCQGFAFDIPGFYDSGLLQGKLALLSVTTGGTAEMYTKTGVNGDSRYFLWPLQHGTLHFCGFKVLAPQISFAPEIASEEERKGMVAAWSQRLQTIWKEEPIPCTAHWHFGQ
UniProt Q13873, 203-504 limits assumed: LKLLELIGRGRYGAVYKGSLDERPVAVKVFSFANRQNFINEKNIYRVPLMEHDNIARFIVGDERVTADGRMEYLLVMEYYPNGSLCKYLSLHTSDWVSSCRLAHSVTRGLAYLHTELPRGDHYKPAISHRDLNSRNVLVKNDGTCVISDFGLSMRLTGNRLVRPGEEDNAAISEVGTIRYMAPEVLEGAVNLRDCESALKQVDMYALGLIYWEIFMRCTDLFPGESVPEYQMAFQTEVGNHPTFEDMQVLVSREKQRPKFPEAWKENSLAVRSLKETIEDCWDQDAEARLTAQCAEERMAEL
UniProt P68400, 39-324 limits assumed: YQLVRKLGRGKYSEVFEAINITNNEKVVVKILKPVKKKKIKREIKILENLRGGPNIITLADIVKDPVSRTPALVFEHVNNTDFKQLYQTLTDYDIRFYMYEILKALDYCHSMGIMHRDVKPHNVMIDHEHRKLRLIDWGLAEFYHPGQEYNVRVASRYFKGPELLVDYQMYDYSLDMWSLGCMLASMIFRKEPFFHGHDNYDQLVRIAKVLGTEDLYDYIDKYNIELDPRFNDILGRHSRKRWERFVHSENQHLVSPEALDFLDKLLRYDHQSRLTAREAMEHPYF
UniProt O94768, 25-329 limits assumed: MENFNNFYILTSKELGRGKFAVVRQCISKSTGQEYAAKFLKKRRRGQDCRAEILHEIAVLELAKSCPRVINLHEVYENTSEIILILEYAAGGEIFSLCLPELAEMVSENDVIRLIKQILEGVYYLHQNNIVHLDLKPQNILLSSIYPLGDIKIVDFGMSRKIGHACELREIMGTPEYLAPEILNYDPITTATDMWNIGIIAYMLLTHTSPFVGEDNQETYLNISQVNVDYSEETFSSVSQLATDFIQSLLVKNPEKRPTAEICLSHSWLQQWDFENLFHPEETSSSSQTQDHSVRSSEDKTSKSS
UniProt O14733, 120-380 limits assumed: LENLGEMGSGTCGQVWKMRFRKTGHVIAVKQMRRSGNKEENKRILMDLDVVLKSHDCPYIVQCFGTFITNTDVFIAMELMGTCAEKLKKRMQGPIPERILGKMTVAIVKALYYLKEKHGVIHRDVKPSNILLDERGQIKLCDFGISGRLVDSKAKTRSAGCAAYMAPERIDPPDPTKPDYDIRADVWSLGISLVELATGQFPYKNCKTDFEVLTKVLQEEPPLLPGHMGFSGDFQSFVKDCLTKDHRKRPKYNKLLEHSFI
UniProt Q96L34, 59-310 limits assumed: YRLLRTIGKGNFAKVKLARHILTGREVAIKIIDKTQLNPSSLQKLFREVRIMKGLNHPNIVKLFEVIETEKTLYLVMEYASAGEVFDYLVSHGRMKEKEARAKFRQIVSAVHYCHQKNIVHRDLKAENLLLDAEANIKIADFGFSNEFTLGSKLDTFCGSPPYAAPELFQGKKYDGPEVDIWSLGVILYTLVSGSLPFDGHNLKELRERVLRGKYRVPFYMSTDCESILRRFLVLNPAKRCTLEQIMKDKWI
UniProt Q8TD08, 13-304 limits assumed: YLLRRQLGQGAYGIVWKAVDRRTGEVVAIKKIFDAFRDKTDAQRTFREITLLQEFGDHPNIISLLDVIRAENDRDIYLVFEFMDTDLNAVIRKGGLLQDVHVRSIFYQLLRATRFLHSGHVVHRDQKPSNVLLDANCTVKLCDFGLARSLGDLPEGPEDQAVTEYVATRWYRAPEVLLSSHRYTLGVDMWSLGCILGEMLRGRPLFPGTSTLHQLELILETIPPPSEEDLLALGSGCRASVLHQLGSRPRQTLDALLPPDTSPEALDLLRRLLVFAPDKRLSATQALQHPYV
UniProt Q2M2I8, 46-315 limits assumed: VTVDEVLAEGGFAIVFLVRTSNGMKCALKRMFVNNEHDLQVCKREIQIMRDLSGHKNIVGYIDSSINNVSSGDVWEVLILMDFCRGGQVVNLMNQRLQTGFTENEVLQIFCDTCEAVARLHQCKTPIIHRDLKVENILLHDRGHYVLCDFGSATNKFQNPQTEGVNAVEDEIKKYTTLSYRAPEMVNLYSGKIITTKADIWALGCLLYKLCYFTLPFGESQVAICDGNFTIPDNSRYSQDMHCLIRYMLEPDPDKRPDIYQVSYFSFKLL
UniProt P27448, 56-307 limits assumed: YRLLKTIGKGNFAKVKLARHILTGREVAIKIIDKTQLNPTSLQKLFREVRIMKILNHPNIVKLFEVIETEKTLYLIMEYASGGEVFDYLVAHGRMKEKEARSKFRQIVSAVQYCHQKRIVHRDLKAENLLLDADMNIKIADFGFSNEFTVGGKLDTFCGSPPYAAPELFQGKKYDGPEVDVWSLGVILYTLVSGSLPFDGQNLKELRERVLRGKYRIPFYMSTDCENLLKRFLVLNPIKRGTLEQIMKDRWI
UniProt P17948, 801-1158 limits assumed: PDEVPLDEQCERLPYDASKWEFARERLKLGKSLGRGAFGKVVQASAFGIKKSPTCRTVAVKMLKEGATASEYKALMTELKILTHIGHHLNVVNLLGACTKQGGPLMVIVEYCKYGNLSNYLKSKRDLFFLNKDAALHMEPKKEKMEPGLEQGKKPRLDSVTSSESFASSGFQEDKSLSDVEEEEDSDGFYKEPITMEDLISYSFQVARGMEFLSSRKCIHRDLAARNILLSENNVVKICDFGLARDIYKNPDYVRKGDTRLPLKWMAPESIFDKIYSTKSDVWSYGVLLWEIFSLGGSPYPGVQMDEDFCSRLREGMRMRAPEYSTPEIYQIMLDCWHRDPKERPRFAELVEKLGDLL
UniProt Q8IU85: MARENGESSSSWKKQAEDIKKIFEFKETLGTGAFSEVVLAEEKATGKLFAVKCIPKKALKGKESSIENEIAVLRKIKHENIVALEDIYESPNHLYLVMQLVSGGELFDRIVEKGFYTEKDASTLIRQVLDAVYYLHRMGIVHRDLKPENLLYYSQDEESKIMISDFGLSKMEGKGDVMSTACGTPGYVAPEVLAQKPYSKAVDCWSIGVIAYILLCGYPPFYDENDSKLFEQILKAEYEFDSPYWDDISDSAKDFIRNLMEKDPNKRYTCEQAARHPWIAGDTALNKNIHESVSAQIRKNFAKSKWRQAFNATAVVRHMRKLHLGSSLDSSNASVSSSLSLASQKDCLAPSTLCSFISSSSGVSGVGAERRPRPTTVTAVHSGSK
UniProt P53779, 39-402 limits assumed: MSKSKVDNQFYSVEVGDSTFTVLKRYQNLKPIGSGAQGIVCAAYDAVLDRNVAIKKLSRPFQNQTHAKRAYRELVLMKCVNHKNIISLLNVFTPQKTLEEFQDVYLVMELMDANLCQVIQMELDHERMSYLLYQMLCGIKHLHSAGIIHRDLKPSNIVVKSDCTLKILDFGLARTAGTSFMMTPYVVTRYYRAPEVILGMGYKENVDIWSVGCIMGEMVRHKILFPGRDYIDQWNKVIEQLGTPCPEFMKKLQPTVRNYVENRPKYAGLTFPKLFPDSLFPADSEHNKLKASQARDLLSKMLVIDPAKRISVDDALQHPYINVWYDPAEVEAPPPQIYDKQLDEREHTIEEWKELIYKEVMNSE
UniProt O14936, 12-276 limits assumed: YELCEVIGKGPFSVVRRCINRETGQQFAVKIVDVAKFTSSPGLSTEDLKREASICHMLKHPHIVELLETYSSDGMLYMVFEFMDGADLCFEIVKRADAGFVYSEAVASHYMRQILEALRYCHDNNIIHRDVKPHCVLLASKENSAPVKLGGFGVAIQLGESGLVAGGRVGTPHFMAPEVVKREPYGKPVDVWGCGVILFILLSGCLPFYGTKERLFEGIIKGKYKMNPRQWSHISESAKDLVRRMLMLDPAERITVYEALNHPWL
UniProt Q8TDX7, 34-299 limits assumed: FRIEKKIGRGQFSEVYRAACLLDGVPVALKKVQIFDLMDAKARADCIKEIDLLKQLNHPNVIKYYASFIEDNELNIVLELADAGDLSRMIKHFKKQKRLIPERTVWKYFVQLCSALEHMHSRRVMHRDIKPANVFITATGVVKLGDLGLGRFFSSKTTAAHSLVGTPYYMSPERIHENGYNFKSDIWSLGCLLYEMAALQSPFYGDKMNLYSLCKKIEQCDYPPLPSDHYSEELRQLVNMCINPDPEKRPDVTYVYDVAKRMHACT

## C[C@@H](CO)Cn1cc(-c2c(Cl)cnc3[nH]ccc23)nn1
[1]
  ΔTm MST3: -1.0 °C
[2]
  ΔTm BRPF1: -0.1 °C
[3]
  ΔTm SLK: -0.4 °C
[4]
  ΔTm STLK3: 1.4 °C
[5]
  ΔTm DCAMKL1: 1.1 °C
[6]
  ΔTm ULK1: 3.8 °C
[7]
  ΔTm PIM1: 1.2 °C
[8]
  ΔTm PLK4: 4.5 °C
[9]
  ΔTm CDKL1: 0.2 °C
[10]
  ΔTm BRD4: 1.6 °C
[11]
  ΔTm OSR1: 2.8 °C
[12]
  ΔTm GAK: 3.1 °C
[13]
  ΔTm CAMK4: 1.0 °C
[14]
  ΔTm MAPKAPK2: -0.1 °C
[15]
  ΔTm NQO2: -0.5 °C
[16]
  ΔTm BMPR2: 6.4 °C
[17]
  ΔTm SRC: 0.2 °C
[18]
  ΔTm EPHA4: 0.4 °C
[19]
  ΔTm CK2a1: 2.0 °C
[20]
  ΔTm DRAK2: 2.9 °C
[21]
  ΔTm WNK1: -0.1 °C
[22]
  ΔTm MAP2K7: 0.0 °C
[23]
  ΔTm MARK4: 2.4 °C
[24]
  ΔTm DYRK1A: 1.6 °C
[25]
  ΔTm BRAF: 1.2 °C
[26]
  ΔTm DRAK1: 4.8 °C
[27]
  ΔTm LOK: -1.3 °C
[28]
  ΔTm MAPK15: 4.5 °C
[29]
  ΔTm TIF1: -0.5 °C
[30]
  ΔTm EPHA5: -0.4 °C
[31]
  ΔTm AAK1: 5.4 °C
[32]
  ΔTm MARK3: 2.1 °C
[33]
  ΔTm VRK1: 0.1 °C
[34]
  ΔTm FLT1: 3.9 °C
[35]
  ΔTm GPRK5: 1.5 °C
[36]
  ΔTm PAK4: 3.3 °C
[37]
  ΔTm MYT1: -0.4 °C
[38]
  ΔTm CAMK1D: 1.6 °C
[39]
  ΔTm JNK3: 1.8 °C
[40]
  ΔTm CASK: 0.1 °C
[41]
  ΔTm NEK7: -0.3 °C
[42]
  ΔTm CK1d: 3.7 °C

## Clc1cnc2[nH]ccc2c1-c1cn(-c2ccccc2)nn1
[1]
  ΔTm MST3: -0.9 °C
[2]
  ΔTm BRPF1: -0.9 °C
[3]
  ΔTm SLK: -0.6 °C
[4]
  ΔTm STLK3: 0.6 °C
[5]
  ΔTm DCAMKL1: 0.6 °C
[6]
  ΔTm ULK1: 2.9 °C
[7]
  ΔTm PIM1: 0.5 °C
[8]
  ΔTm PLK4: 3.7 °C
[9]
  ΔTm CDKL1: -0.4 °C
[10]
  ΔTm BRD4: 4.9 °C
[11]
  ΔTm OSR1: 0.3 °C
[12]
  ΔTm GAK: 1.1 °C
[13]
  ΔTm CAMK4: -0.1 °C
[14]
  ΔTm MAPKAPK2: -0.3 °C
[15]
  ΔTm NQO2: -0.8 °C
[16]
  ΔTm BMPR2: 5.4 °C
[17]
  ΔTm SRC: -0.3 °C
[18]
  ΔTm EPHA4: 0.2 °C
[19]
  ΔTm CK2a1: 1.2 °C
[20]
  ΔTm DRAK2: 1.6 °C
[21]
  ΔTm WNK1: -0.6 °C
[22]
  ΔTm MAP2K7: -0.4 °C
[23]
  ΔTm MARK4: 2.3 °C
[24]
  ΔTm DYRK1A: 1.2 °C
[25]
  ΔTm BRAF: 0.5 °C
[26]
  ΔTm DRAK1: 8.0 °C
[27]
  ΔTm LOK: -1.5 °C
[28]
  ΔTm MAPK15: 1.9 °C
[29]
  ΔTm TIF1: -0.3 °C
[30]
  ΔTm EPHA5: -0.5 °C
[31]
  ΔTm AAK1: 4.5 °C
[32]
  ΔTm MARK3: 1.3 °C
[33]
  ΔTm VRK1: -0.5 °C
[34]
  ΔTm FLT1: 3.2 °C
[35]
  ΔTm GPRK5: 0.3 °C
[36]
  ΔTm PAK4: 1.8 °C
[37]
  ΔTm MYT1: -0.5 °C
[38]
  ΔTm CAMK1D: 1.2 °C
[39]
  ΔTm JNK3: 1.2 °C
[40]
  ΔTm CASK: 0.7 °C
[41]
  ΔTm NEK7: -0.3 °C
[42]
  ΔTm CK1d: 1.4 °C

## OC[C@H](O)Cn1cc(-c2c(Cl)cnc3[nH]ccc23)nn1
[1]
  ΔTm MST3: -1.5 °C
[2]
  ΔTm BRPF1: -1.2 °C
[3]
  ΔTm SLK: -0.6 °C
[4]
  ΔTm STLK3: 1.2 °C
[5]
  ΔTm DCAMKL1: -0.2 °C
[6]
  ΔTm ULK1: 2.6 °C
[7]
  ΔTm PIM1: 0.8 °C
[8]
  ΔTm PLK4: 3.1 °C
[9]
  ΔTm CDKL1: 0.2 °C
[10]
  ΔTm BRD4: 1.4 °C
[11]
  ΔTm OSR1: 1.0 °C
[12]
  ΔTm GAK: 2.3 °C
[13]
  ΔTm CAMK4: -0.9 °C
[14]
  ΔTm MAPKAPK2: -2.3 °C
[15]
  ΔTm NQO2: -0.7 °C
[16]
  ΔTm BMPR2: 4.8 °C
[17]
  ΔTm SRC: 0.1 °C
[18]
  ΔTm EPHA4: 0.0 °C
[19]
  ΔTm CK2a1: 1.0 °C
[20]
  ΔTm DRAK2: 2.6 °C
[21]
  ΔTm WNK1: -0.2 °C
[22]
  ΔTm MAP2K7: -0.7 °C
[23]
  ΔTm MARK4: 2.0 °C
[24]
  ΔTm DYRK1A: 1.0 °C
[25]
  ΔTm BRAF: 0.9 °C
[26]
  ΔTm DRAK1: 2.6 °C
[27]
  ΔTm LOK: -1.5 °C
[28]
  ΔTm MAPK15: 2.7 °C
[29]
  ΔTm TIF1: -0.3 °C
[30]
  ΔTm EPHA5: -0.6 °C
[31]
  ΔTm AAK1: 5.2 °C
[32]
  ΔTm MARK3: 2.3 °C
[33]
  ΔTm VRK1: -0.3 °C
[34]
  ΔTm FLT1: 3.6 °C
[35]
  ΔTm GPRK5: 1.2 °C
[36]
  ΔTm PAK4: 2.5 °C
[37]
  ΔTm MYT1: -0.6 °C
[38]
  ΔTm CAMK1D: 1.6 °C
[39]
  ΔTm JNK3: 1.7 °C
[40]
  ΔTm CASK: -0.7 °C
[41]
  ΔTm NEK7: -0.5 °C
[42]
  ΔTm CK1d: 4.1 °C

## C[C@H](CO)Cn1cc(-c2c(Cl)cnc3[nH]ccc23)nn1
[1]
  ΔTm MST3: -1.5 °C
[2]
  ΔTm BRPF1: -1.0 °C
[3]
  ΔTm SLK: 0.1 °C
[4]
  ΔTm STLK3: 1.1 °C
[5]
  ΔTm DCAMKL1: 0.6 °C
[6]
  ΔTm ULK1: 3.3 °C
[7]
  ΔTm PIM1: 1.0 °C
[8]
  ΔTm PLK4: 4.2 °C
[9]
  ΔTm CDKL1: 0.5 °C
[10]
  ΔTm BRD4: 1.5 °C
[11]
  ΔTm OSR1: 1.5 °C
[12]
  ΔTm GAK: 3.4 °C
[13]
  ΔTm CAMK4: 0.6 °C
[14]
  ΔTm MAPKAPK2: -0.3 °C
[15]
  ΔTm NQO2: -0.6 °C
[16]
  ΔTm BMPR2: 6.2 °C
[17]
  ΔTm SRC: 1.4 °C
[18]
  ΔTm EPHA4: 0.5 °C
[19]
  ΔTm CK2a1: 1.8 °C
[20]
  ΔTm DRAK2: 3.0 °C
[21]
  ΔTm WNK1: 0.0 °C
[22]
  ΔTm MAP2K7: -0.6 °C
[23]
  ΔTm MARK4: 2.1 °C
[24]
  ΔTm DYRK1A: 1.6 °C
[25]
  ΔTm BRAF: 1.3 °C
[26]
  ΔTm DRAK1: 4.5 °C
[27]
  ΔTm LOK: -1.7 °C
[28]
  ΔTm MAPK15: 4.9 °C
[29]
  ΔTm TIF1: -0.4 °C
[30]
  ΔTm EPHA5: -0.6 °C
[31]
  ΔTm AAK1: 5.8 °C
[32]
  ΔTm MARK3: 1.2 °C
[33]
  ΔTm VRK1: -0.3 °C
[34]
  ΔTm FLT1: 4.4 °C
[35]
  ΔTm GPRK5: 1.1 °C
[36]
  ΔTm PAK4: 3.3 °C
[37]
  ΔTm MYT1: -0.4 °C
[38]
  ΔTm CAMK1D: 1.6 °C
[39]
  ΔTm JNK3: 1.7 °C
[40]
  ΔTm CASK: -0.5 °C
[41]
  ΔTm NEK7: -0.5 °C
[42]
  ΔTm CK1d: 3.8 °C
